Test [1] has as its target T1, hSLC19A3-wt overexpressed in Expi293F cells (Homo sapiens, UniProt Q9BZV2).
T1 construct: full-length, wildtype human SLC19A3; expressed in transfected cells; host or cells: Expi293F
Description: Mass spectrometry-based cellular thiamine-d3 uptake assay. The class given is cell-based. Particulars: 200 μM compound, 2 μM thiamine-d3, 5 min, n = 3.

Sequences of proteins named here, by UniProt entry; tags and fusion partners are left off. A line that says so, or that is headed by a name, gives the form on record, which may keep a tag or linker.
UniProt Q9BZV2, with tags, fused parts or gaps: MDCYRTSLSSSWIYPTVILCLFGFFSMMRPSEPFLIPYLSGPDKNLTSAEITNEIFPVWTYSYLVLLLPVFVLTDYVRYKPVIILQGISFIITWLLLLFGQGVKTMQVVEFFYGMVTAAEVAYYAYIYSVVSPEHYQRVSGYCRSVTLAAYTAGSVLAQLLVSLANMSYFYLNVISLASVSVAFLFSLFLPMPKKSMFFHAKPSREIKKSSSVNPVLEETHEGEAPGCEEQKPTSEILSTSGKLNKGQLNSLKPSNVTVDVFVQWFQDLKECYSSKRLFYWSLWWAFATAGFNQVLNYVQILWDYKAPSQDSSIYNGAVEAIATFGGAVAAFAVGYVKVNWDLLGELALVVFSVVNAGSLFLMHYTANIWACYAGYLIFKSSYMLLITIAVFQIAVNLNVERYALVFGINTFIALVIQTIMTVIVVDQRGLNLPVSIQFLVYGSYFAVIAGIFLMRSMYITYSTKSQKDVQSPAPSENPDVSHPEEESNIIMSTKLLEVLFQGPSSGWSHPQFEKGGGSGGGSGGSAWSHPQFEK

The target of test [2] is hSLC19A3-wt (Homo sapiens, UniProt Q9BZV2). Description: nanoDSF thermal shift assay / apparent binding affinity, wildtype transporter. As to conditions: thermal shift screen at 20 μM and 200 μM compound. Background: DSF heats the sample and reads unfolding from a dye or from intrinsic fluorescence.

Structures are written as SMILES.

For the molecule `CNCCC(Oc1ccc(C(F)(F)F)cc1)c1ccccc1` (centres unmarked) [fluoxetine], the “inhibition of thiamine uptake through hSLC19A3, in words” value in test [1] is recorded as “only citalopram interferes with thiamine uptake”. Further, the “thermal shift / interaction with hSLC19A3, in words” value in test [2] is reported as “also interact with hSLC19A3”.

The values are drawn from article PMC11447181 (Nature Communications, 2024).
